{"source": "paper PMC8179049", "about": "“Synthesis of 2-oxoglutarate derivatives and their evaluation as cosubstrates and inhibitors of human aspartate/asparagine-β-hydroxylase” (Chemical Science, 2020)", "origin": "cited, not measured here", "tested_on": "bovine AspH", "details": "cited from earlier work"}
{"smiles": "O=C(O)CCC(=O)C(=O)O", "note": "[2OG, 2-Oxoglutarate]", "values": [{"measurement": "K app m (2OG) of bovine AspH", "result": "~5", "unit": "µM"}]}
